Experimental data taken from paper PMC4570798, “Characterisation of a Novel Anti-CD52 Antibody with Improved Efficacy and Reduced Immunogenicity” (PLoS ONE, 2015).

Amino acid sequences for entries named in this document (tags omitted). A change or cut given only in a name is not applied to a line headed by its entry.
UniProt P31358: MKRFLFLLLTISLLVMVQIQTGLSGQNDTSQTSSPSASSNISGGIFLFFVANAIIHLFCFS

Molecular target: T1, CD52 on the surface of HUT78 and REH^++ cells (Homo sapiens, UniProt P31358)
T1 construct: CD52, endogenous on the human lymphoid cell lines HUT78 and REH (high-expressing ++ clone); The introduction describes mature CD52 as a 12-residue peptide, glycosylated at Asn-3 and GPI-anchored; also called cell-surface CD52; surface CD52; source: endogenous, on HUT78 cells and REH^++ cells
T1 chain: GQNDTSQTSSPS
Test: flow cytometry on cells; direct binding to HUT78 cells; varying concentrations of antibody, 1 hour at 4°C in FC buffer (PBS pH 7.4, 1% BSA, 0.05% sodium azide); goat anti-human IgG F(ab')2-PE
Settings: one partner purified

B1: chimeric 2E8 antibody (antibody, V domains shown)
VH: EVHLMESGGGLVQPGGSLRLSCAASGFTFSRYGMSWVRQTPDKRLELVAMMKTKGGRTYYPDSVKGRFTISRDNAKNSLYLQMSSLKSEDTAIYFCASDGYYWGQGTTLTVSS
VL: not shown
binding result: binds
